The values that follow are results of earlier work, collected in patent US5175145A, “Treatment of diabetes mellitus with amylin agonists” (Amylin Pharmaceuticals, Inc., priority 1992, dated 1992).

For this data set the following is noted: administered to rats.

For the substance “calcitonin gene related peptide (ACDTATCVTHRLAGLLSRSGGVVKNNFVPTNVGSKAF; Calcitonin gene-related peptide 1; UniProt P06881 83-119, looked up) [CGRP, peptide structurally similar to amylin (46% identity with human CGRP-2)]”, the “effects on blood pressure and blood catecholamine levels” value was “exerts significant effects on blood pressure and blood catecholamine levels”.
